Experimental data: patent publication US5254558A, “Substituted 1,3-diazines as leukocyte elastase inhibitors” (Imperial Chemical Industries PLC, priority 1991, dated 1993)

Tested on: HLE
Test: in vivo tests (Acute Lung Injury Model, Acute Hemorrhagic Assay)

CC(C)C(NC(=O)Cn1c(-c2ccccc2)ncc(NC(=O)OCC(F)(F)F)c1=O)C(=O)C(F)(F)F (stereo not shown) [Example 99]
activity in in vivo tests: activity in in vivo tests
